{
  "source": "patent US5849915A",
  "about": "(priority 1996, dated 1998)",
  "format_in_all_cases": "in vivo",
  "key": {"[1]": {"experiment": "Hot plate test for measuring analgesia in mice", "conditions": "s.c."}, "[2]": {"experiment": "Anti-morphine experiments in the hot plate test in mice", "conditions": "morphine 24 mg/kg s.c. 15 min before compound s.c."}, "[3]": {"experiment": "Acetic acid writhing test for measuring analgesia in mice", "conditions": "male mice 18~22g, s.c.; 0.6% acetic acid i.p.; limits: (I)b 6.63~18.51, buprenorphine 4.67~10.29"}},
  "data": [
    {"molecule": "CO[C@]12CC[C@@]3(C[C@@H]1[C@](C)(O)C1CC1)[C@H]1Cc4ccc(O)c5c4[C@@]3(CCN1CC1CC1)[C@H]2O5", "values": [
      {"measurement": "analgesic action in the hot plate test (in words)", "setting": "[1]", "value": "failed to produce analgesia in the hot plate test"},
      {"measurement": "anti-Mor effect (in words)", "setting": "[2]", "value": "antagonised Mor analgesia"},
      {"measurement": "AD50 (95% confidence limits), dosage required to inhibit Mor analgesia by 50%", "setting": "[2]; printed limits 345.68~456.50", "value": 0.39724, "unit": "mg/kg"},
      {"measurement": "ED50 (95% confidence limits) in the acetic acid writhing test", "setting": "[3]", "value": 0.01108, "unit": "mg/kg"}
    ]}
  ]
}
